Measurements as given in PubChem BioAssay (NCI).
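Method: 48-hour compound exposure of cells in 96-well plates, five concentrations, linear interpolation of endpoints. GI50: concentration for 50% inhibition of growth. The concentration for full growth arrest is given as TGI.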

What was measured:
Assay in all cases: growth of human tumour cells (NCI), 48 h
DLD-1 colon = system: DLD-1 colon
SNB-78 CNS = system: SNB-78 CNS
DMS 114 small cell lung = system: DMS 114 small cell lung
M19-MEL melanoma = system: M19-MEL melanoma
LXFL 529 NSCLC = system: LXFL 529 NSCLC

**Q.** Which GI50 (DLD-1 colon) does the source give for `Nc1ccccc1Nc1ccccc1C(=O)[O-].Nc1ccccc1Nc1ccccc1C(=O)[O-].[Zn+2]` here?
**A.** Its GI50 is greater than 100 µM.

**Q.** And the TGI (DLD-1 colon)?
**A.** The TGI was greater than 100 µM.

**Q.** What about the GI50 (SNB-78 CNS) of the same compound?
**A.** The GI50 was 50.3 µM.

**Q.** And the TGI (SNB-78 CNS)?
**A.** Its TGI is greater than 100 µM.

**Q.** And the GI50 (DMS 114 small cell lung)?
**A.** The GI50 was 70.7 µM.

**Q.** What about the TGI (DMS 114 small cell lung) of the same compound?
**A.** Its TGI is greater than 100 µM.

**Q.** And the GI50 (M19-MEL melanoma)?
**A.** The GI50 was 23.9 µM.

**Q.** And the TGI (M19-MEL melanoma)?
**A.** The TGI was 57.9 µM.

**Q.** What about the GI50 (LXFL 529 NSCLC) of the same compound?
**A.** The GI50 was 33.9 µM.

**Q.** And the TGI (LXFL 529 NSCLC)?
**A.** Its TGI is greater than 100 µM.
